Source: ChEMBL document CHEMBL4765362, “Thirty Years of HDAC Inhibitors: 2020 Insight and Hindsight” (J Med Chem, 2020)

Protein sequences, listed by entry. Tags and fused reporters are not part of them. Lines headed by an entry give the natural chain unless they say otherwise; changes in a name come on top.
UniProt P56524: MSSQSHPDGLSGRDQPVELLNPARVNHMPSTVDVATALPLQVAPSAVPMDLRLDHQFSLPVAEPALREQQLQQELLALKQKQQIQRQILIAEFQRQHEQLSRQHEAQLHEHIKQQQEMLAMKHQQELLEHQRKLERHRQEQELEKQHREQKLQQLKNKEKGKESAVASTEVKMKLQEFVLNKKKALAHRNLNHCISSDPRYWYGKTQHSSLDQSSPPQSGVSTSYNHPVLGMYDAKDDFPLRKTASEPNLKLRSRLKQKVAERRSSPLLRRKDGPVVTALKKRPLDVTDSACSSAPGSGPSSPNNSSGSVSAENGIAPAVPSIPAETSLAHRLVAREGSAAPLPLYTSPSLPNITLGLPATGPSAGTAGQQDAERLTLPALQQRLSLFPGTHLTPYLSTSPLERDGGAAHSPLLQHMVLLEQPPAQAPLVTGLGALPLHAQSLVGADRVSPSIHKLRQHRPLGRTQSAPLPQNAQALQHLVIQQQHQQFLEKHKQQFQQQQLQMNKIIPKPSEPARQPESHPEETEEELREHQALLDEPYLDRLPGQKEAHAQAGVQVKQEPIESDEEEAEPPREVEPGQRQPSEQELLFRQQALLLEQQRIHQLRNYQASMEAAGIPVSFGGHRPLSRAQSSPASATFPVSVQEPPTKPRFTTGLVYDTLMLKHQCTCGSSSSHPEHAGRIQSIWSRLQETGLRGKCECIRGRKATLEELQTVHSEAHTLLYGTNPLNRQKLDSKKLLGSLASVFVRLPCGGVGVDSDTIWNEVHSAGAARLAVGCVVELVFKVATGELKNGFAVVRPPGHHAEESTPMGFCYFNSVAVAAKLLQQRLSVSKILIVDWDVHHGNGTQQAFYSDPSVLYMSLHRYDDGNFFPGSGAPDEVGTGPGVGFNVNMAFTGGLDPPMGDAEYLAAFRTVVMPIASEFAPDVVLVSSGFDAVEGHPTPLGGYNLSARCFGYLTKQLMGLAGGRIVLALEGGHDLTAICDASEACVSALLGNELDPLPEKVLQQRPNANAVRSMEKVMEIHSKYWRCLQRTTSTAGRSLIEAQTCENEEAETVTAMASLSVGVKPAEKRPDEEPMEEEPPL

Molecular target: Histone deacetylase 4 (Homo sapiens, UniProt P56524)
Assay: Inhibition of HDAC4 (unknown origin) (648 to 1057 residues) expressed in Escherichia coli BL21(DE3) cells using Boc-Lys(TFA)-AMC as substrate preincubated for 5 mins followed by substrate addition and measured after 30 mins by fluorescence method

IC50: > 20 µM
Compound: COc1ccc(Cn2ccc3ccc(C(=O)NO)cc32)cc1
